Reference: patent US20010049357A1, “Use of Hsp27 as an anti-inflammatory agent” (priority 1999, published 2001)

Tests used:
[1] = tested on: trauma patients' monocytes
[2] = tested on: trauma patients' monocytes; type: cell-based, human

Q: How did the “IL-12(pg/10^6 cells/ml) x ± SEM” value [1] turn out when heat shock protein-27 [Hsp 27] was run?
A: 598 ± 140 pg/10^6 cells/ml

Q: What about the “IL-10(pg/10^6 cells/ml) x ± SEM” value [2] of the same substance?
A: 670 ± 195 pg/10^6 cells/ml
